B1: macrophage inflammatory protein 1beta (protein, UniProt P13236 24-92, looked up)
C-C motif chemokine 4: APMGSDPPTACCFSYTARKLPRNFVVDYYETSSLCSQPAVVFQTKRSKQVCADPSESWVQEYVYDLELN
notes: CC chemokine ligand 4, IG1 ligand of CCR5

Experiments:
[1] = molecular target: CXCR4-AT1R Heterodimer (Homo sapiens, UniProt P30556+P61073); assay: eBRET beta-arrestin 2 recruitment, cells expressing CXCR4/Rluc8 and barr2/Venus with HA-AT1R; details: 10^−7M SDF1α; HEK293FT cells co-expressing CXCR4/Rluc8, barr2/Venus and HA-AT1R; 37 C
[2] = molecular target: CCR5-AT1R Heterodimer (Homo sapiens, UniProt P30556+P51681); assay: eBRET beta-arrestin 2 recruitment, cells expressing CCR5/Rluc8 and barr2/Venus with HA-AT1R; type: cell-based; details: 10^−7M MIP1β; HEK293FT cells co-expressing CCR5/Rluc8, barr2/Venus and HA-AT1R; 37 C

Row | Molecule | transient eBRET signal peak (ligand-induced BRET ratio) [1] | eBRET signal peak (ligand-induced BRET ratio) [2]
1 | stromal-cell derived factor-1α [SDF1α] | about 0.01 | 
2 | B1 |  | about 0.08

Reference: US20120100130A1, “Novel Receptor Hetero-Dimers/-Oligomers” (DIMERIX BIOSCIENCE PTY LTD., priority 2009, published 2012)
